# Measurements: patent US5516797A, “Immunosuppressive compounds” (Vertex Pharmaceuticals, Incorporated, priority 1994, dated 1996)
# Chains of the proteins cited; added tags and fusions are not shown.
# UniProt P62942, whole entry: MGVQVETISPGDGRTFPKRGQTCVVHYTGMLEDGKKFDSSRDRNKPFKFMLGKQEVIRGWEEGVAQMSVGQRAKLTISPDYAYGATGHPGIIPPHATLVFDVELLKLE
# Biological target: FK-506 binding protein (FKBP) (Homo sapiens, UniProt P62942)
# Assay: Competitive binding to FKBP against [3H]dihydro-FK-506 (apparent Kd)
# Conditions: competition with [3H]dihydro-FK-506
# Description: Human FK-506 binding protein can be obtained as described by Harding, M. W. et al., Nature 341:758-760 (1989). Values for the apparent Kd can be determined from a competitive LH-20 binding assay performed as described by Harding et al., using 32-[1-^14 C]-benzoyl FK-506 as a reporting ligand; or using [^3 H]dihydro-FK-506, as described by Siekierka, J. J. et al., Nature 341:755-757 (1989). The data was obtained using the latter method, where the ability of an unlabeled compound to compete with the binding of [^3 H]dihydro-FK-506to FK-506 binding protein was measured.
row,Kd [nM],SMILES
1,2000 to 3000,COC(=O)C(=O)N1CCCC[C@H]1C(=O)OCCCCC1CCCCC1 [Compound 34]
2,100,COc1cc(C(=O)C(=O)N2CCCC[C@H]2C(=O)OCCCCC2CCCCC2)cc(OC)c1OC [Compound 57]
3,35,COc1cc(C(=O)C(=O)N2CCCC[C@H]2C(=O)OCc2cccc(Oc3ccccc3)c2)cc(OC)c1OC [Compound 61]
4,54,COc1cc(C(=O)C(=O)N2CCCC[C@H]2C(=O)OCCCc2c[nH]c3ccccc23)cc(OC)c1OC [Compound 84]
